# Structures can show the parent of a compound that is named as a salt.
# What was measured:
# [1] = molecular target: T1, pre-synaptic α2-adrenoreceptor (Mus musculus, UniProt Q01338); experiment: Pre-synaptic α2-adrenoreceptor antagonist activity, mouse vas deferens (reversal of clonidine inhibition)
# T1 construct: The mouse vas deferens was stimulated at low frequency (0.1 Hz); from tissue; host or cells: mouse vas deferens
# T1 sequence (Q01338 1-465): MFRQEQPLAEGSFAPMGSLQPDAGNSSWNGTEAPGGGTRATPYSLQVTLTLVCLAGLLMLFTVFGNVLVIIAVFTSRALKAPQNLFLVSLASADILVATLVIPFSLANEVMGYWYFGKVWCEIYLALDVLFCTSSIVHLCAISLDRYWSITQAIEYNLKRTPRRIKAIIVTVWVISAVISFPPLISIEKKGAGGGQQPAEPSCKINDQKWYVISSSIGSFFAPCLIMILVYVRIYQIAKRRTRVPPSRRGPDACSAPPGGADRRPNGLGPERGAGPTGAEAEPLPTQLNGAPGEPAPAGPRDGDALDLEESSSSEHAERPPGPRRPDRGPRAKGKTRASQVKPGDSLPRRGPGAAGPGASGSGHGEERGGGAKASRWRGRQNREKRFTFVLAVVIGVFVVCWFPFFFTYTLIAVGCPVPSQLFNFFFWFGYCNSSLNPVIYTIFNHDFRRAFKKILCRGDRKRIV
# [2] = molecular target: T2, presynaptic α2-adrenoreceptor (Rattus norvegicus, UniProt P22909); experiment: Presynaptic α2-adrenoreceptor antagonism in the pithed rat (reversal of clonidine block on vas deferens, i.v.); type: in vivo
# T2 sequence (P22909 1-465): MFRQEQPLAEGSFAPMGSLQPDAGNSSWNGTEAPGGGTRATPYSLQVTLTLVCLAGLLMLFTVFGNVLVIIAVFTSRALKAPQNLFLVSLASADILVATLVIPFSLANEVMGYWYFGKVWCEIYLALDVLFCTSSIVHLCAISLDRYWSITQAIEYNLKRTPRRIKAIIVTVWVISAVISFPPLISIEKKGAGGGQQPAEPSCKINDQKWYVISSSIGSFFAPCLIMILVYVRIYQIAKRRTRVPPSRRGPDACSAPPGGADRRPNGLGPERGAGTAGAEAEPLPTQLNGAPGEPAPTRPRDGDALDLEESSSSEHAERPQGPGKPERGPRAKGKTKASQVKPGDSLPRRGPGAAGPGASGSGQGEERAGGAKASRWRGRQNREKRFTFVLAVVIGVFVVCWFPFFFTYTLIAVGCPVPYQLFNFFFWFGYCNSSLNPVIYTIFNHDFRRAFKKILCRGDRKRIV
# [3] = molecular target: T2, presynaptic α2-adrenoreceptor; details: Table 1, of the compounds studied
# [4] = molecular target: T2, presynaptic α2-adrenoreceptor
α2 potency: Antagonism [1],SMILES,"presynaptic α2-adrenoreceptor antagonist potency in the pithed rat (in words) ([2]; Table 2, of those studied)","ED50 ([2]; iv, pithed rat, i.v. cumulative dosing, clonidine 100 μg/kg i.v., mean of minimum 4 rats, read-out: i.v. dose of antagonist causing 50% reversal of clonidine block on vas deferens)",presynaptic α2-adrenoreceptor antagonist potency (in words) [3],selectivity for presynaptic sites (in words) [3],Kb [4]
0.003,CN1CCN=C1C1COc2ccccc2O1 (stereo not drawn) [3^1 -methyl],,,,,
,"CC1(C2=NCCN2)COc2ccccc2O1 (stereo not drawn) [Example 1, 2-[2-(2-Methyl-1,4-benzodioxanyl)]-2-imidazoline hydrochloride]",clearly the most potent presynaptic α2 -adrenoreceptor antagonist,0.04 mg/kg,the most potent presynaptic α2 -adrenoreceptor antagonist,the most selective for presynaptic sites,2.51 nM

# From patent US4397860A, “Benzodioxanyl imidazoline compounds, compositions and use” (Reckitt & Colman Products Limited, priority 1981, dated 1983)
